Counter-ions that a name gives are not always drawn.
Key:
PI 3-kinase alpha = PI 3-kinase alpha (Homo sapiens (Human), UniProt P42336); settings: read-out: Assay A PI3Kα IC50
PI 3-kinase beta = PI 3-kinase beta (Homo sapiens (Human), UniProt P42338); settings: read-out: Assay B PI3Kβ IC50
[1] = molecular target: PI 3-kinase alpha (Rat-1 pBABEpuro Myr-HA-hp110 alpha cells) (Homo sapiens (Human), UniProt P42336); test: cell-based; settings: Assay H PI3Kα IC50
[2] = molecular target: PI 3-kinase beta (Rat-1 pBABEpuro Myr-HA-hp110 beta cells) (Homo sapiens (Human), UniProt P42338); test: cell-based; settings: Assay I PI3Kβ IC50

Chains of the proteins cited; added tags and fusions are not shown. Lines headed by an entry give the natural chain unless they say otherwise; changes in a name come on top.
UniProt P42336, whole entry, looked up: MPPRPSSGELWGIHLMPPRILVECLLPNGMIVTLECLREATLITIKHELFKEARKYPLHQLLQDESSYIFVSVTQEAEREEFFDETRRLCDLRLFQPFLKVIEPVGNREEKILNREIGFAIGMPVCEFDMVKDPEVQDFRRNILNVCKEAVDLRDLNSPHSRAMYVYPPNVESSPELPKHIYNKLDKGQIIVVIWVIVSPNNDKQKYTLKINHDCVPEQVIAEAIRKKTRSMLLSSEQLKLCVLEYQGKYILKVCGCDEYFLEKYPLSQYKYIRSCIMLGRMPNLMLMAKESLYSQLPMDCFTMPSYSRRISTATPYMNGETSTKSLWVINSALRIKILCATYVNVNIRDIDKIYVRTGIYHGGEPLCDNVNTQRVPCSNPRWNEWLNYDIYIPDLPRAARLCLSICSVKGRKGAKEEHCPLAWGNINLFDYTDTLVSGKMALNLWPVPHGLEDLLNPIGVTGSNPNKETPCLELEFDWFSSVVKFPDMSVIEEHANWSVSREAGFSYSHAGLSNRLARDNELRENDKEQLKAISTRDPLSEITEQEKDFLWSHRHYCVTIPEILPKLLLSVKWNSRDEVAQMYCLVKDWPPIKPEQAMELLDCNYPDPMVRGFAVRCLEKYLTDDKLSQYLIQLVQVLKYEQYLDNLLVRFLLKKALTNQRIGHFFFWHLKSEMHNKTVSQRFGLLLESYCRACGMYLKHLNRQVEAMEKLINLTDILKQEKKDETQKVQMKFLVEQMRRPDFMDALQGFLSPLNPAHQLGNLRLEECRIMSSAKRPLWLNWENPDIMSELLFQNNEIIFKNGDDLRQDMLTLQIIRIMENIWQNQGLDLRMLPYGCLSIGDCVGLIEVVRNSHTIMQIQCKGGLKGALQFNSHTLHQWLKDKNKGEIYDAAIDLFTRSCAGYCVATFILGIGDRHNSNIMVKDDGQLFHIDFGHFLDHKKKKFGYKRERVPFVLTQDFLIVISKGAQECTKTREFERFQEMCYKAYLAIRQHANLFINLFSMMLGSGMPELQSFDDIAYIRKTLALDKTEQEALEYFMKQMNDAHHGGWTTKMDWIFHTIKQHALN
UniProt P42338: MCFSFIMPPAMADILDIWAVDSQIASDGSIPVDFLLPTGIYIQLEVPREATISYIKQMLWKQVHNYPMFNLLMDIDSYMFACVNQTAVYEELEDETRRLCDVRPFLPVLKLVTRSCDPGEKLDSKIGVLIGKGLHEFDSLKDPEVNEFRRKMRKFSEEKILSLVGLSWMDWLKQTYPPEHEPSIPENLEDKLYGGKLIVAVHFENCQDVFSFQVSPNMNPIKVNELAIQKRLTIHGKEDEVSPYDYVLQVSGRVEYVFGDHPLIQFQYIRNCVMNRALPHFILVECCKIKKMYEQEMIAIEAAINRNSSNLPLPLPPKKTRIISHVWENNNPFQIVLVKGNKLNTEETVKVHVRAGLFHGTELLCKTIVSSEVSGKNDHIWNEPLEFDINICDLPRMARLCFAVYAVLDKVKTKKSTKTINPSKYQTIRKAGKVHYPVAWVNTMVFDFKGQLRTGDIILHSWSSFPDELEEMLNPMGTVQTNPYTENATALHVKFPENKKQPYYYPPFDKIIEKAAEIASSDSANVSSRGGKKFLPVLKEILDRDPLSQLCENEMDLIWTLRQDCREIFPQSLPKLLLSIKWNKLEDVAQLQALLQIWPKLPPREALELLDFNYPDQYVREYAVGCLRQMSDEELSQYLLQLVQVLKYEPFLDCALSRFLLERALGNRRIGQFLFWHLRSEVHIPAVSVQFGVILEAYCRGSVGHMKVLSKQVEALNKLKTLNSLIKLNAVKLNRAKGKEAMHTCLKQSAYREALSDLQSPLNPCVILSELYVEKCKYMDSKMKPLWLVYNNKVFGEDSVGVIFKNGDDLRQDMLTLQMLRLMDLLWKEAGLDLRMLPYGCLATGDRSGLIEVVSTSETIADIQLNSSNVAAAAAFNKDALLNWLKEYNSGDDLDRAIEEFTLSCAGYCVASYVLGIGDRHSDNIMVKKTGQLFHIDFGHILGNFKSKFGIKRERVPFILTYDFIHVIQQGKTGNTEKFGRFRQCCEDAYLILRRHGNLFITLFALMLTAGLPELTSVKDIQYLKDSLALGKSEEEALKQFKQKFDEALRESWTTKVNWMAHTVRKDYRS

SMILES | IC50 (PI 3-kinase alpha) | IC50 (PI 3-kinase beta) | IC50 [1] | IC50 [2]
Cc1cc(-c2cc(-c3cc(S(=O)(=O)NCC4(CO)CCC4)ccc3C)cnc2N)on1 [Example 37.6, 3-(6-Amino-5-(3-methylisoxazol-5-yl)pyridin-3-yl)-N-((1-(hydroxymethyl)cyclobutyl)methyl)-4-methylbenzenesulfonamide] | 250 nM | 0.8 µM | 2.86 µM | > 10 µM
Cc1cc(-c2cc(-c3cc(S(=O)(=O)NC[C@H]4C[C@@H](O)C4)ccc3C)cnc2N)on1 [Example 84, cis-3-(6-Amino-5-(3-methylisoxazol-5-yl)pyridin-3-yl)-N-(((1s,3s)-3-hydroxycyclobutyl)methyl)-4-methylbenzenesulfonamide] | 270 nM | 4.45 µM | 7.03 µM | > 10 µM
Cc1ccc(S(=O)(=O)NCC(C)(C)O)cc1-c1cnc(N)c(-c2cc(C3CC3)no2)c1 [Example 35.3, 3-(6-Amino-5-(3-cyclopropylisoxazol-5-yl)pyridin-3-yl)-N-(2-hydroxy-2-methylpropyl)-4-methylbenzenesulfonamide hydrochloride] | 390 nM | 3.5 µM | > 10 µM | > 10 µM
Cc1ccc(S(=O)(=O)NCC(C)(C)O)cc1-c1cnc(N)c(-c2nc(C(C)C)no2)c1 [Example 5.1, 3-(6-Amino-5-(3-isopropyl-1,2,4-oxadiazol-5-yl)pyridin-3-yl)-N-(2-hydroxy-2-methylpropyl)-4-methylbenzenesulfonamide hydrochloride] | 1250 nM | 6.45 µM | 8.94 µM | > 3 µM
Cc1noc(-c2cc(-c3cc(S(=O)(=O)NCC4(O)CCOCC4)ccc3C)cnc2N)n1 [Example 51, 3-(6-Amino-5-(3-methyl-1,2,4-oxadiazol-5-yl)pyridin-3-yl)-N-((4-hydroxytetrahydro-2H-pyran-4-yl)methyl)-4-methylbenzenesulfonamide] | 420 nM | 1.8 µM | 1.56 µM | > 10 µM
Cc1cc(-c2cc(-c3cc(S(=O)(=O)NCC4COC4)ccc3C)cnc2N)on1 [Example 25, 3-(6-Amino-5-(3-methylisoxazol-5-yl)pyridin-3-yl)-4-methyl-N-(oxetan-3-ylmethyl)benzenesulfonamide] | 400 nM | 4.4 µM | 2.81 µM | > 10 µM
Cc1noc(-c2cc(-c3cc(S(=O)(=O)NCC4(CO)CCCC4)ccc3C)cnc2N)n1 [Example 37.13, 3-(6-Amino-5-(3-methyl-1,2,4-oxadiazol-5-yl)pyridin-3-yl)-N-((1-(hydroxymethyl)cyclopentyl)methyl)-4-methylbenzenesulfonamide] | 350 nM | 2.8 µM | 2.21 µM | 3.86 µM
Cc1noc(-c2cc(-c3cc(S(=O)(=O)N[C@H]4CC[C@H](O)CC4)ccc3C)cnc2N)n1 [Example 12, trans 3-[6-Amino-5-(3-methyl-[1,2,4]oxadiazol-5-yl)-pyridin-3-yl]-N-(4-hydroxy-cyclohexyl)-4-methyl-benzenesulfonamide, hydrochloride salt] | 160 nM | 0.23 µM | 1.46 µM | 3.94 µM
Cc1cc(-c2cc(-c3cc(S(=O)(=O)N[C@@H]4CCNC(=O)C4)ccc3C)cnc2N)on1 [Example 37.4, (R)-3-(6-Amino-5-(3-methylisoxazol-5-yl)pyridin-3-yl)-4-methyl-N-(2-oxopiperidin-4-yl)benzenesulfonamide] | 570 nM | 6.7 µM | > 10 µM | > 10 µM
Cc1ncc(-c2cc(-c3cc(S(N)(=O)=O)ccc3C)cnc2N)o1 [Example 33, 3-(6-Amino-5-(2-methyloxazol-5-yl)pyridin-3-yl)-4-methylbenzenesulfonamide] | 130 nM | 3.2 µM | > 10 µM | > 10 µM
CONS(=O)(=O)c1ccc(C)c(-c2cnc(N)c(-c3nc(C)no3)c2)c1 [Example 46, 3-(6-Amino-5-(3-methyl-1,2,4-oxadiazol-5-yl)pyridin-3-yl)-N-methoxy-4-methylbenzenesulfonamide] | 390 nM | > 10 µM | 1.46 µM | > 10 µM
Cc1cc(-c2cc(-c3cc(S(=O)(=O)N[C@H]4CC[C@H](CO)CC4)ccc3C)cnc2N)ccn1 [Example 77, trans-3-(2-Amino-2′-methyl-[3,4′-bipyridin]-5-yl)-N-(−4-(hydroxymethyl)cyclohexyl)-4-methylbenzenesulfonamide hydrochloride] | 30 nM | 1.7 µM | 3.58 µM | > 10 µM
Cc1cnc(-c2cc(-c3cc(S(=O)(=O)NCC(C)(C)O)ccc3C)cnc2N)s1 [Example 90, 3-(6-Amino-5-(5-methylthiazol-2-yl)pyridin-3-yl)-N-(2-hydroxy-2-methylpropyl)-4-methylbenzenesulfonamide] | 160 nM | 0.88 µM | > 10 µM | 3.57 µM
Cc1cc(-c2cc(-c3cc(S(=O)(=O)NC[C@@H]4CCOC4)ccc3C)cnc2N)on1 [Example 38, (S)-3-(6-Amino-5-(3-methylisoxazol-5-yl)pyridin-3-yl)-4-methyl-N-((tetrahydrofuran-3-yl)methyl)benzenesulfonamide] | 320 nM | 4.7 µM | > 10 µM | 4.23 µM
Cc1cc(-c2cc(-c3cc(S(=O)(=O)NCC(C)(C)O)ccc3C)cnc2N)sn1 [Example 4.8, 3-(6-Amino-5-(3-methylisothiazol-5-yl)pyridin-3-yl)-N-(2-hydroxy-2-methylpropyl)-4-methyl-benzenesulfonamide hydrochloride] | 570 nM | 4.65 µM | > 10 µM | 4.47 µM
Cc1noc(-c2cc(-c3cc(S(=O)(=O)NCCC4(O)CCCCC4)ccc3C)cnc2N)n1 [Example 37.31, 3-(6-Amino-5-(3-methyl-1,2,4-oxadiazol-5-yl)pyridin-3-yl)-N-(2-(1-hydroxycyclohexyl)ethyl)-4-methylbenzenesulfonamide] | 50 nM | 2.5 µM | 1 µM | > 10 µM
Cc1nc(-c2cc(-c3cc(S(=O)(=O)NCC(C)(C)O)ccc3C)cnc2N)cs1 [Example 59, 3-(6-Amino-5-(2-methylthiazol-4-yl)pyridin-3-yl)-N-(2-hydroxy-2-methylpropyl)-4-methylbenzenesulfonamide] | 830 nM | 9.2 µM | > 10 µM | > 10 µM
Cc1cc(-c2cc(-c3cc(S(=O)(=O)N4CC[C@@H](O)C4)ccc3C)cnc2N)on1 [Example 37.24, (R)-1-((3-(6-Amino-5-(3-methylisoxazol-5-yl)pyridin-3-yl)-4-methylphenyl)sulfonyl)pyrrolidin-3-ol] | 1700 nM | 6.3 µM | > 10 µM | > 10 µM
Cc1noc(-c2cc(-c3cc(S(=O)(=O)NC4CCN(C(C)C)CC4)ccc3C)cnc2N)n1 [Example 37.34, 3-(6-Amino-5-(3-methyl-1,2,4-oxadiazol-5-yl)pyridin-3-yl)-N-(1-isopropylpiperidin-4-yl)-4-methylbenzenesulfonamide] | 1400 nM | > 10 µM | > 10 µM | > 10 µM

Source: US10112926B2 (priority 2014, dated 2018)
